Patent US12539311B2, “Short-acting heparin-based anticoagulant compounds and methods” (The University of North Carolina at Chapel Hill, priority 2017, dated 2026)

Amino acid sequences for entries named in this document (tags omitted). Residues count along the entry.
UniProt P01008, 33-464 limits assumed: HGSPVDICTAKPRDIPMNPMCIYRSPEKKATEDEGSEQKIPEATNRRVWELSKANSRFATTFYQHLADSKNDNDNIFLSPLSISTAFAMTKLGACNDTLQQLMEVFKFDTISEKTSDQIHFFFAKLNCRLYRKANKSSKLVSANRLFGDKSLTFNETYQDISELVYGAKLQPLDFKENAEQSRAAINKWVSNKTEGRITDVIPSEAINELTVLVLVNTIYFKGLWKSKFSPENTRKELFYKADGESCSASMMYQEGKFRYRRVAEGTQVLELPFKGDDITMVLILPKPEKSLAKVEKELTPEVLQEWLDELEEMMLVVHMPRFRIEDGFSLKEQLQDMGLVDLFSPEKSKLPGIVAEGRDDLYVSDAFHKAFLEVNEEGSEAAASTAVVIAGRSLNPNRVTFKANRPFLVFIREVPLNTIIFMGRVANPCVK

Biological target: antithrombin (AT) (Homo sapiens, UniProt P01008)
Assay: AT-binding affinity analysis using isothermal titration calorimetry (ITC)

binding to AT (in words): high AT-binding affinity
SMILES: O=C(O)[C@H]1O[C@@H](Oc2ccc([N+](=O)[O-])cc2)[C@H](O)[C@@H](O)[C@@H]1O[C@H]1O[C@H](COS(=O)(=O)O)[C@@H](O[C@@H]2O[C@@H](C(=O)O)[C@@H](O[C@H]3O[C@H](COS(=O)(=O)O)[C@@H](O[C@@H]4O[C@@H](C(=O)O)[C@@H](O[C@H]5O[C@H](COS(=O)(=O)O)[C@@H](O[C@@H]6O[C@H](C(=O)O)[C@@H](O[C@H]7O[C@H](COS(=O)(=O)O)[C@@H](O)[C@H](O)[C@H]7NS(=O)(=O)O)[C@H](O)[C@H]6O)[C@H](OS(=O)(=O)O)[C@H]5NS(=O)(=O)O)[C@H](O)[C@H]4OS(=O)(=O)O)[C@H](OS(=O)(=O)O)[C@H]3NS(=O)(=O)O)[C@H](O)[C@H]2OS(=O)(=O)O)[C@H](O)[C@H]1NS(=O)(=O)O
